Results published in paper PMC8175309, “Translational CNS Steady-State Drug Disposition Model in Rats, Monkeys, and Humans for Quantitative Prediction of Brain-to-Plasma and Cerebrospinal Fluid-to-Plasma Unbound Concentration Ratios” (The AAPS Journal, 2021).

Protein sequences, listed by entry. Tags and fused reporters are not part of them. Lines headed by an entry give the natural chain unless they say otherwise; changes in a name come on top.
UniProt Q9UNQ0: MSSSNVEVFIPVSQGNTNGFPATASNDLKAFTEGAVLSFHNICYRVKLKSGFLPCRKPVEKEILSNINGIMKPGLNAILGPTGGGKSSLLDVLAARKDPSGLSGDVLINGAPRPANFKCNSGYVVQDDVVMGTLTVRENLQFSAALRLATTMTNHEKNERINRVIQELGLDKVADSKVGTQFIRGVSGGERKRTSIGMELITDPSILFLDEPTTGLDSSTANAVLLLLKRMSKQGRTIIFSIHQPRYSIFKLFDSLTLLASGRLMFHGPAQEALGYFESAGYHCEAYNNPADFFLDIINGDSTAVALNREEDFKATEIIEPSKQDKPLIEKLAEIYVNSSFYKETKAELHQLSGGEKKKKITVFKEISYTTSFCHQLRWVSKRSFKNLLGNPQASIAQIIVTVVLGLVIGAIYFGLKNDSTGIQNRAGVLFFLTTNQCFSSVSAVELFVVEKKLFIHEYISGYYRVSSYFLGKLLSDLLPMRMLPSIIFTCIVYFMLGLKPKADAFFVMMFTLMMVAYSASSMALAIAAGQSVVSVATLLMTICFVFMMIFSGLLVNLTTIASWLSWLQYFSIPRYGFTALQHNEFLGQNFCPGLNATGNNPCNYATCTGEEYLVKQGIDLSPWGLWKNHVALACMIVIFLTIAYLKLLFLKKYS

Target: BCRP (Homo sapiens, UniProt Q9UNQ0)
Experiment: Transcellular transport across MDCK-BCRP cell monolayers (efflux ratio)
Settings: MDCK-BCRP cells, 1 μM, 1 h, Papp,BtoA/Papp,AtoB; *1 data internally obtained

| Compound | Efflux ratio BCRP |
| --- | --- |
| CN(C)CCCC1(c2ccc(F)cc2)OCc2cc(C#N)ccc21 (stereo not shown) [Citalopram] | 0.6 |
| CC(C)Nc1cccnc1N1CCN(C(=O)c2cc3cc(NS(C)(=O)=O)ccc3[nH]2)CC1 [Delavirdine] | 38.0 |
| O=c1c(-c2ccc(O)cc2)coc2cc(O)cc(O)c12 [Genistein] | 26.0 |
| O=C1NC(=O)C(c2ccccc2)(c2ccccc2)N1 [Phenytoin] | 1.0 |
